What was measured:
MT-4 lymphocytes = details: 10 pg to about 10 ng
[1] = cited from earlier work

gramicidin
Cytotoxicity at the IC50 to IC100 amounts (MT-4 lymphocytes): without any evidence of attendant cytotoxicity
Solubility in ethanol ([1]; ethanol): freely soluble
Solubility in water, acids, and alkalies ([1]; water, acids, alkalies): insoluble

Source: US5552382A, “Gramicidin as a spermicide against sexual transmission of HIV” (priority 1994, dated 1996)
